# Test: Inhibition of Escherichia coli thymidylate synthase
structure (smiles),measurement,value
Cc1nc(=O)c2cc(CN(C)c3ccc(C(=O)N[C@@H](CCC(=O)O)C(=O)O)s3)ccc2[nH]1 [RALTITREXED],IC50,2300 nM

# From ChEMBL document CHEMBL2046359, “Novel tricyclic indeno[2,1-d]pyrimidines with dual antiangiogenic and cytotoxic activities as potent antitumor agents” (Bioorg Med Chem, 2012)
